Test results from patent US20130023553A1, “PEGYLATED OPIOIDS WITH LOW POTENTIAL FOR ABUSE AND SIDE EFFECTS” (Nektar Therapeutics, priority 2010, published 2013).

Sequences of proteins named here, by UniProt entry; tags and fusion partners are left off. A change or cut given only in a name is not applied to a line headed by its entry.
UniProt P41145: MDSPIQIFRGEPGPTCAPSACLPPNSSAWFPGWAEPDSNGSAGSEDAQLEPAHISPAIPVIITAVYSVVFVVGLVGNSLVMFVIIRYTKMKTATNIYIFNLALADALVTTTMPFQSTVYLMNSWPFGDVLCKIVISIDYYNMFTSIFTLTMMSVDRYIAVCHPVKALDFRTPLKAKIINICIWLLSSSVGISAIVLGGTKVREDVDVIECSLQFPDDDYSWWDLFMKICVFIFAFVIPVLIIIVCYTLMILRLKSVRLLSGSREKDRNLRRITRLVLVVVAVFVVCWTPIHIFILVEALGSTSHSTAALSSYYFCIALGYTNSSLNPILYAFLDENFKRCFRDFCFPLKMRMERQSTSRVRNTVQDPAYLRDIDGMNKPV

Assays:
[1] = test system: CD-1 male mice; test: Phenylquinone writhing analgesic assay; settings: Mus musculus
[2] = biological target: T1, human kappa opioid receptor (Homo sapiens, UniProt P41145); test: biochemical; type: binding
T1 construct: expressed in transfected cells; host or cells: CHO cells

Compound	ED50 [1] [mg/kg]	Ki [2] [µM]
CN1CC[C@]23c4c5ccc(O)c4O[C@H]2[C@@H](O)C=C[C@H]3[C@H]1C5 [Morphine, morphine, reference compound]	0.369	–
COCCOCCOCCOC1C=CC2C3Cc4ccc(OC)c5c4C2(CCN3C)C1O5 (stereo not drawn) [α-6-mPEG3-O-codeine]	–	36.5
